Patent US20240207362A1 (priority 2022, published 2024)
Read-outs that look alike come from different tables or passages of the source. This is a selection: effects in other tests are not listed, and their absence says nothing.

Experiments:
dcLVs [1] = experiment: Contraction or dilation of exposed dcLVs after applying agents; assay type: in vivo, mouse; settings: FIG. 39B
dcLVs [2] = system: dcLVs

Substance: sodium nitroprusside
- amount of CSF tracer (in dcLV) (dcLVs [1]): increased
- CSF drainage (CSF tracer in dcLN) (dcLVs [2]; 30 μM of nitric oxide donor): no change
- CSF drainage (CSF tracer in dcLN) (dcLVs [2]; low dosage of nitric oxide donor, 3 μM): enhanced
